Data as given in US20240398845A1, “USE OF SGLT-2 INHIBITORS FOR THE PREVENTION AND/OR TREATMENT OF CARDIAC DISEASES IN NON-HUMAN MAMMALS EXCLUDING FELINES, IN PARTICULAR CANINES” (BOEHRINGER INGELHEIM VETMEDICA GMBH, priority 2021, published 2024).

System: dogs with occult or overt dilated cardiomyopathy (DCM)

With `N#Cc1ccc([C@@H]2O[C@H](CO)[C@@H](O)[C@H](O)[C@H]2O)cc1Cc1ccc(C2CC2)cc1` [velagliflozin, Velagliflozin] the “time to end of study (euthanized at day 69)” value (case 100-006, overt DCM, velagliflozin oral 0.05 mg/kg bodyweight/day, torasemide 0.08 mg/kg/day added at D45) was 69 days, the “treatment period until adverse event (severe weakness, tachypnea, reduced perfusion, atrial fibrillation, abdominal distension due to ascites)” value (case 100-006, overt DCM, velagliflozin oral 0.05 mg/kg bodyweight/day, torasemide 0.08 mg/kg/day added at D45, attributed to progression of the heart disease) was 68 days and the body weight (case 100-007, overt DCM) was “did not reveal any significant changes”. For the same compound, the blood glucose (case 100-007, overt DCM, after initiation of the study drug) was “normalized”, the TMF pattern (case 100-007, overt DCM, during the first 42 days of the study) was “from a restrictive to a nonrestrictive pattern” and the “left atrial size and left ventricular diastolic and systolic dimensions” value (case 100-007, overt DCM, over the first 90 days of the study) was “decreased progressively”. For the same compound, the “left ventricular hypokinesis determined by FS %, EPSS, and ESVI” value (case 100-007, overt DCM, over the first 90 days, no positive inotropic support) was “worsened”, the “electrolytes (Na and K) and NT-proBNP” value (case 100-007, overt DCM, until and including D90 visit) was “within normal limits” and the “adverse event up to the regular D90 visit” value (case 100-007, overt DCM, velagliflozin 0.05 mg/kg bodyweight/day, torasemide 0.48 mg/kg bodyweight/day added at D45) was “without developing an adverse event”.
